# The entries are a selection whose mix differs from that of the whole data set. The source made the active and inactive calls. The call rests on the fitted dose curve; in most records, active means well fitted activation curve with a large enough effect; inconclusive means small, poorly fitted or top-dose-only effect; inactive means flat fitted curve, though single readings scatter.
# Assay: qHTS Assay for Allosteric/Competitive Inhibitors of Caspase-1: Spectroscopic Profiling in AFC Spectral Region; further: 0% is about no effect
# Conditions: compound fluorescence, AFC spectral region (405/520 nm); at 57.5 µM (top of the series) unless noted
row,SMILES,fluorescence increase
1,COc1ccc(NC2CCN(CCc3ccccc3)CC2)c(OC)c1,inactive: 0.821%
2,O=C(OC1CN2CCC1CC2)C1c2ccccc2Oc2ccccc21 (stereo unspecified),inactive: 2.19%
3,NC1CCCCC1.NP(=O)(O)N(CCCl)CCCl,inactive: -0.317% [at 11.5 µM]
4,CCOP(=O)(Cl)Cl,inactive: -0.389%
5,N#CC1(Nc2ccccc2)CCN(CCc2ccccc2)CC1,inactive: -0.555%
6,ClCCOP(OCCCl)OCCCl,inactive: 5.21%
7,N/C(=N\O)c1c(N)no[n+]1[O-],inactive: 1.02%
8,CCC(CO)(C(=O)OC1CN2CCC1CC2)c1ccccc1 (stereo unspecified),inactive: 0.52%
9,O=C(O)C1(Nc2ccccc2)CCN(Cc2ccccc2)CC1,inactive: 0.806% [at 11.5 µM]
10,CCOc1ncccc1C(=O)NCC1(N2CCOCC2)CCCCC1,inactive: -0.0337%
11,Fc1ccccc1NC1CCN(Cc2ccccc2)CC1,inactive: 0.169%
